# Where two headings read alike, the source gives them in different places.
# Amino acid sequences for entries named in this document (tags omitted). Residues count along the entry.
# UniProt P01889, 25-362: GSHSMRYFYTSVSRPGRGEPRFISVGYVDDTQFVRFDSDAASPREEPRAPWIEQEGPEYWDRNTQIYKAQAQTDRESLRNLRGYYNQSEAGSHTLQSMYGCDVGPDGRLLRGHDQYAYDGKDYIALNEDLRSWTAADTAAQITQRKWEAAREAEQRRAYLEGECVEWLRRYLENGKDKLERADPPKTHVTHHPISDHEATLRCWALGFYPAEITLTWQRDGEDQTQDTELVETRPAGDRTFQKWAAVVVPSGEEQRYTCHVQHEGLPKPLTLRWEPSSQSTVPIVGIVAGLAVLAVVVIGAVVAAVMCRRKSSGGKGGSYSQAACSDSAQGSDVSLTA
# What was measured:
# Test in all cases: biochemical
# A*0202 = A*0202 (Homo sapiens, UniProt P04439, D140Y/D185E/D98H/E176V/E277Q/G131W/G231S/I119L/I121R/I166T/I218V/L180W/L300P/L318F/N151K/N90K/P208A/P217A/Q67R/Q86G/Q94H/R138H/R169H/T345S)
# HLA-B*0702 = HLA-B*0702 (Homo sapiens, UniProt P01889)
# A*0206 = A*0206 (Homo sapiens, UniProt P04439, D140Y/D185E/D98H/E176V/E277Q/F33Y/G131W/G231S/I119V/I121R/I166T/I218V/L300P/L318F/N151K/N90K/P208A/P217A/Q86G/Q94H/R138H/R169H/T345S); conditions: A*0206 binding affinity, Table XXII
# A*6802 = A*6802 (Homo sapiens, UniProt P04439, A269V/D140Y/D185E/E176V/E277Q/E87N/F33Y/G231S/I121R/I166T/I218V/L180W/L300P/L318F/N151K/P208A/P217A/Q86R/R138H/R169H/S129P/T345S/V36M)
# A*0203 = A*0203 (Homo sapiens, UniProt P04439, A173T/D140Y/D185E/D98H/E277Q/G131W/G231S/I119V/I121R/I166T/I218V/L180W/L300P/L318F/N151K/N90K/P208A/P217A/Q86G/Q94H/R138H/R169H/T345S); conditions: A*0203 binding affinity, Table XXII
# HLA-A*0201 = HLA-A*0201 (Homo sapiens, UniProt P04439, D140Y/D185E/D98H/E176V/E277Q/G131W/G231S/I119V/I121R/I166T/I218V/L300P/L318F/N151K/N90K/P208A/P217A/Q86G/Q94H/R138H/R169H/T345S)
compound,measurement,setting,value
CC(C)C[C@H](NC(=O)[C@H](C)N)C(=O)N1CCC[C@H]1C(=O)N1CCC[C@H]1C(=O)N[C@H](C(=O)N[C@@H](C)C(=O)N1CCC[C@H]1C(=O)N[C@H](C(=O)O)C(C)C)C(C)C [p53.69L2V8],IC50,A*0202,7170 nM
CC[C@H](C)[C@H](NC(=O)[C@@H]1CCCN1C(=O)[C@H](C)NC(=O)[C@@H]1CCCN1C(=O)[C@H](C)NC(=O)[C@@H](NC(=O)[C@@H]1CCCN1C(=O)[C@@H]1CCCN1C(=O)[C@@H](N)Cc1ccccc1)C(C)C)C(=O)O [p53.70.F119],IC50,HLA-B*0702,275 nM
CC(C)C[C@H](NC(=O)[C@@H](N)Cc1ccccc1)C(=O)N[C@@H](Cc1c[nH]cn1)C(=O)N[C@@H](CO)C(=O)NCC(=O)N[C@H](C(=O)N[C@@H](C)C(=O)N[C@@H](CCCCN)C(=O)N[C@@H](CO)C(=O)N[C@H](C(=O)O)C(C)C)[C@@H](C)O [p53.113],IC50,A*0206; A2 supermotif peptides,4620 nM
same,IC50,A*6802,> 10000 nM
CC[C@H](NC(=O)[C@H](Cc1ccccc1)NC(=O)[C@H](CCSC)NC(=O)[C@H](CCCCN)NC(=O)[C@H](CC(N)=O)NC(=O)[C@H](CC(C)C)NC(=O)[C@H](C)N)C(=O)N[C@@H](CCC(N)=O)C(=O)N[C@H](C(=O)O)C(C)C [p53.129B7V9],IC50,A*0206; A2 supermotif analogs,49 nM
same,IC50,A*6802,> 10000 nM
same,IC50,A*0203; A2 supermotif analogs,23 nM
CSCC[C@H](NC(=O)[C@H](Cc1c[nH]cn1)NC(=O)[C@H](CCC(N)=O)NC(=O)[C@H](CO)NC(=O)[C@H](CCC(N)=O)NC(=O)[C@@H](N)CCCCN)C(=O)N[C@H](C(=O)N[C@@H](CCC(=O)O)C(=O)N[C@H](C(=O)O)C(C)C)[C@@H](C)O [p53.164],IC50,"HLA-A*0201; A*0201 binding affinity, Table XXII, A2 supermotif peptides",500 nM
same,IC50,A*6802,> 10000 nM
same,IC50,A*0203; A2 supermotif peptides,170 nM
CC[C@H](C)[C@H](NC(=O)[C@H](CC(C)C)NC(=O)[C@H](Cc1c[nH]cn1)NC(=O)[C@H](CCC(N)=O)NC(=O)[C@@H]1CCCN1C(=O)[C@@H]1CCCN1C(=O)[C@H](C)NC(=O)[C@H](CC(C)C)NC(=O)CN)C(=O)N[C@@H](CCCNC(=N)N)C(=O)N[C@H](C(=O)O)C(C)C [p53.187],IC50,HLA-A*0201,79 nM
same,IC50,A*6802,> 10000 nM
same,IC50,A*0202,39 nM
CC(C)[C@H](N)C(=O)N[C@H](C(=O)N[C@H](C(=O)N1CCC[C@H]1C(=O)N[C@@H](Cc1ccc(O)cc1)C(=O)N[C@@H](CCC(=O)O)C(=O)N1CCC[C@H]1C(=O)N1CCC[C@H]1C(=O)N[C@@H](CCC(=O)O)C(=O)N[C@H](C(=O)O)C(C)C)C(C)C)C(C)C [p53.216],IC50,"HLA-A*0201; A*0201 binding affinity, Table XXII, A2 supermotif analogs",617 nM
same,IC50,A*6802,> 10000 nM
CC[C@H](C)[C@H](N)C(=O)N[C@@H](CC(C)C)C(=O)N[C@@H](CC(C)C)C(=O)N[C@@H](CCC(=O)O)C(=O)N[C@@H](CC(=O)O)C(=O)N[C@@H](CO)C(=O)N[C@@H](CO)C(=O)NCC(=O)N[C@@H](CC(N)=O)C(=O)N[C@@H](CC(C)C)C(=O)N[C@H](C(=O)O)C(C)C [p53.255L2V11],IC50,A*6802,> 10000 nM
same,IC50,A*0203; A2 supermotif analogs,71 nM
CC(C)C[C@H](NC(=O)[C@H](CC(C)C)NC(=O)[C@@H](N)CC(N)=O)C(=O)NCC(=O)N[C@@H](CCCNC(=N)N)C(=O)N[C@@H](CC(N)=O)C(=O)N[C@@H](CO)C(=O)N[C@@H](Cc1ccccc1)C(=O)N[C@@H](CCC(=O)O)C(=O)N[C@H](C(=O)O)C(C)C [p53.263],IC50,A*0203; A2 supermotif peptides,2500 nM

# From patent US20040048790A1, “Inducing cellular immune responses to p53 using peptide and nucleic acid compositions” (priority 1999, published 2004)
